Screens from PubChem BioAssay.
Hits are enriched below; roughly 1.7% of the tested compounds scored in any of these assays.
CAL PDZ FP-1: CAL PDZ peptide-binding inhibitors, primary screen, biochemical, fluorescence polarization, Cer-tagged CAL PDZ, HTS. purified CAL PDZ, TMR-peptide fluorescence polarization, 1 h. inhibition, % at 20 µM. hit rate 0.02% among 330,000. AID 504414, 2011;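 active = highest replicate inhibition of at least 40%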;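 also: plate controls were DMSO neutral control wells for no effect and unlabeled competitor peptide control wells for full effect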
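Test system: purified CerCALP PDZ construct; Compound dosing: one concentration, 20 µM compound; Also added: TMR-labelled reporter peptide T*-PRC34 bound in PDZ groove; Read-out: inhibition from polarization loss; Controls: unlabelled peptide and DMSO controls; Signal: FP readout, S and P plane fluorescence; Incubation: 1 h at RT.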
CDK5 p35 inh: inhibitors of human CDK5/p35 kinase, primary screen, biochemical, single concentration; Cyclin-dependent kinase 5 (Homo sapiens) + Cyclin-dependent kinase 5 activator 1 (Homo …; Recombinant CDK5/p35, ADP-Glo luminescence, 60 min; inhibition, % at 10 µM; hit rate 0.01% among 330,000; AID 488839, 2010;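 active = highest replicate inhibition of at least 50% and at least 75% of replicates reaching 50%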;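 also: plate controls were DMSO neutral control for no effect and GW8510 at 10 µM for full effect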
dFosB act-1: activators of delta FosB homodimer, primary screen, biochemical, fluorescence polarization, TAMRA-CDK5 oligo, single point; Protein FosB (Mus musculus), P13346; purified delta FosB; percent of positive-control signal above neutral wells; activation, % at 25 µM; hit rate 0.99% among 340,000;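 active = mean activation above about 17%, with every replicate also reaching it, limit read from the data, passing the limit was not always enough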
DYRK1A inh: rat Dyrk1A kinase inhibitors, primary screen, biochemical, single point, plate reader; Dual specificity tyrosine-phosphorylation-regulated kinase 1A (Rattus norvegicus), Q63470; ADP-Glo luminescence, NFATc1 peptide; inhibition, % at 12.5 µM; hit rate 0.43% among 310,000; AID 504441, 2011; in the data active = inhibition above about 50%;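 also: plate controls were vehicle with enzyme for no effect and no enzyme for full effect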
UUG fidelity: alters start codon recognition fidelity in yeast. S. cerevisiae UUG-firefly luciferase reporter, luminescence/redox ratio. 350,000 tested, 0.13% active. activity score, % at 18.7 µM. AID 602363;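 active means replicate mean at a twofold rise or more, about +100% in these data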;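 further: firefly luciferase made from a UUG start codon reports start codon fidelity; reporter light over untreated wells divided by growth signal over untreated wells; some hits fall short of that in this replicate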
CAL PDZ FP-2: untagged CAL PDZ binding inhibitors, primary screen, biochemical, fluorescence polarization, HTS; Golgi-associated PDZ and coiled-coil motif-containing protein (Homo sapiens), Q9HD26; purified CAL PDZ, TMR-peptide fluorescence polarization, 1 h; inhibition, % at 24.9 µM; hit rate 0.92% among 300,000; AID 602252, 2012;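 active = mean inhibition of at least 30% with at least half of replicates also reaching 30%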;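 also: 0% = DMSO neutral control and 100% = excess unlabeled competitor peptide PRC23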
dFosB act-2: activators of mouse delta FosB DNA binding, confirmation, biochemical, fluorescence polarization, TAMRA-CDK5 oligo, cherry-picked samples; shares compounds with dFosB act-1; purified delta FosB; normalised: neutral wells 0, positive control 100; activation, % at 24.9 µM; 2,400 tested, under 10 active;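 active = highest replicate activation at or above 34% and every replicate reaching that threshold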;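 also: higher polarization means more probe DNA bound by delta FosB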
* marks the source's active call; other numbers are inactive results; · = not tested or not shown.

SMILES | CAL PDZ FP-2 | dFosB act-2 | UUG fidelity | CDK5 p35 inh | dFosB act-1 | DYRK1A inh | CAL PDZ FP-1
C[C@@H]1CN([C@@H](C)CO)S(=O)(=O)c2ccc(/C=C/c3ccccc3)cc2O[C@@H]1CN(C)C(=O)NC1CCCC1 | · | · | -11 | · | · | · | ·
CC(=O)c1sc(NC(=O)c2cccc(C)c2)nc1C | -1 | · | · | -1 | -26 | 5 | -4
Cc1ccc(C(=O)Nc2nc(C)c(C(=O)Nc3ccc4c(c3)CCC4)s2)cc1 | -5 | -2 | -17 | 0 | 21* | -1 | -3
CC(=O)c1sc(NC(=O)c2ccc(Cl)cc2)nc1C | -1 | 2 | · | 1 | 34* | 14 | 0
CC(=O)c1sc(NC(=O)c2ccc(F)c(F)c2)nc1C | · | 1 | -13 | 1 | 28* | 1 | -3
Cc1ccccc1-c1ccc([C@H]2[C@H]3CN(S(=O)(=O)c4cn(C)cn4)CCCCN3[C@H]2CO)cc1 | · | · | -8 | · | · | · | ·
Cc1c(Cc2ccccc2)sc(NC(=O)c2ccco2)c1C(N)=O | 0 | 3 | -14 | 1 | 21* | -1 | 0
COC(=O)c1c(NC(=O)c2ccco2)sc(C)c1C | -2 | · | -19 | -1 | -1 | -3 | 0
Cc1ccc(S(=O)(=O)N(C)C[C@@H]2OCCCC[C@@H](C)Oc3ccc(NC(=O)CCC(F)(F)F)cc3C(=O)N([C@@H](C)CO)C[C@H]2C)cc1 | · | · | 11 | · | · | · | ·
Cc1ccc(-c2nnn(CC(=O)N(Cc3ccccc3)C(C(=O)NC3CCCC3)c3ccncc3)n2)o1 (configuration not stated) | -3 | 0 | -20 | -2 | 33* | -1 | ·
C[C@H](CO)N1C[C@H](C)[C@H](CN(C)Cc2ccccc2)Oc2c(NS(=O)(=O)c3ccc(Cl)cc3)cccc2C1=O | · | · | 0 | · | · | · | ·
C[C@@H]1CN([C@H](C)CO)C(=O)Cc2cc(NC(=O)CCN3CCOCC3)ccc2O[C@H]1CN(C)C(=O)Nc1ccc(F)cc1 | · | · | -12 | · | · | · | ·
COc1ccc(C(C(=O)NCC2CCCO2)N(Cc2cccs2)C(=O)c2snc(C(N)=O)c2N)cc1OC (configuration not stated) | -2 | · | 2 | 1 | -11 | 12 | -2
CCOc1ccc(C(C(=O)NCC2CCCO2)N(Cc2cccs2)C(=O)c2snc(C(N)=O)c2N)cc1 (configuration not stated) | -2 | 6 | -11 | -1 | 21* | -10 | 0
Cc1ccc(Nc2nc(Nc3ccc(C)cc3)nc(SC3=NCCS3)n2)cc1 | -2 | 5 | · | 5 | 26* | 4 | -3

SMILES | CAL PDZ FP-2 | dFosB act-2 | UUG fidelity | CDK5 p35 inh | dFosB act-1 | DYRK1A inh | CAL PDZ FP-1
CN(C)C(=O)C[C@@H]1C[C@@H]2c3cc(NC(=O)Nc4ccc(C(F)(F)F)cc4)ccc3O[C@@H]2[C@H](CO)O1 | · | · | 1 | · | · | · | ·
C[C@@H]1CCCCO[C@@H](CN(C)S(=O)(=O)c2cccs2)[C@H](C)CN([C@@H](C)CO)C(=O)c2cc(NC(=O)C3CCCCC3)ccc2O1 | · | · | -7 | · | · | · | ·
Cc1ccc(C(C)C)c(OCC(=O)NNC(=O)Cn2[nH]c(=O)c3ccccc3c2=O)c1 | · | 4 | -14 | 0 | 35* | 3 | -1
Cc1cccc(Cn2c(=O)n(-c3ccc(CC(=O)NCc4ccco4)cc3)c(=O)c3sccc32)c1 | · | -2 | -32 | -2 | 49* | 3 | 0
O=C(Cn1c(=O)n(CC(=O)NCc2ccccc2)c2ccccc21)NCc1ccccc1 | 0 | -1 | -24 | 1 | 24* | 4 | 0
Cc1ccc(Cn2c(=O)n(-c3ccccc3)c(=O)c3ccc(C(=O)NCc4ccco4)cc32)cc1 | · | 7 | -2 | 1 | 26* | 6 | 0
COc1cc2c(=O)n(Cc3ccccc3)c(=O)n(CC(=O)NCc3ccco3)c2cc1OC | · | 5 | -4 | -1 | 31* | 3 | 0
CO[C@H]1CN(C)C(=O)c2ccc(NC(=O)C3CC3)cc2OC[C@@H](C)N(Cc2nccs2)C[C@H]1C | · | · | -19 | · | · | · | ·
CN1CCN(C(=O)C[C@H]2CC[C@@H]3[C@H](COC[C@@H](O)CN3C(=O)Nc3ccc(Cl)cc3)O2)CC1 | · | · | 1 | · | · | · | ·
CO[C@H]1CN(C)C(=O)c2ccc(NC(=O)Nc3cccc(Cl)c3)cc2OC[C@@H](C)NC[C@H]1C | · | · | 5 | · | · | · | ·
COc1ccc(NC(=O)Nc2ccc3c(c2)C(=O)N([C@@H](C)CO)C[C@H](C)[C@@H](CN(C)C(=O)NC(C)C)O3)cc1 | · | · | -5 | · | · | · | ·
Cc1ccc(CNC(=O)CCCn2c(=O)c3ccccc3n(CC(=O)NCc3ccco3)c2=O)cc1 | -1 | · | 1 | -4 | 0 | 2 | 1
Cc1ccc(NC(=O)Cn2c(=O)n(CCCC(=O)NCc3ccco3)c(=O)c3ccccc32)cc1 | · | -3 | 22 | 1 | 32* | -10 | -1
CCNC(=O)Nc1ccc2c(c1)C(=O)N(C)[C@@H]1CC[C@H](CC(=O)NCc3ccc(F)cc3)O[C@@H]1CO2 | · | · | -1 | · | · | · | ·
CCc1nn(CC(=O)NCCC2=CCCCC2)c(=O)c2cc3cc(F)ccc3n12 | -1 | -6 | 2 | -1 | 41* | -8 | -1

SMILES | CAL PDZ FP-2 | dFosB act-2 | UUG fidelity | CDK5 p35 inh | dFosB act-1 | DYRK1A inh | CAL PDZ FP-1
CCN(CC)S(=O)(=O)c1ccc(NC(=O)Cn2c(=O)oc3ccccc32)cc1 | 0 | · | -18 | 0 | 4 | -1 | -3
O=C(Cn1c(=O)oc2ccccc21)Nc1ccc(S(=O)(=O)N2CCCCC2)cc1 | -1 | 5 | -4 | 1 | 60* | -7 | -3
CO[C@H]1CN(C)C(=O)c2ccc(NC(=O)C3CC3)cc2OC[C@H](C)N(C(=O)NC(C)C)C[C@H]1C | · | · | -11 | · | · | · | ·
O=C(Nc1ccc(F)cc1)C1CCN(c2ncnc3c2nc2n3CCCCC2)CC1 | -4 | 3 | -14 | -1 | 48* | 2 | 0
C/C=C/c1cnc2c(c1)C(=O)N([C@@H](C)CO)C[C@@H](C)[C@H](CN(C)C(=O)NC1CCCCC1)O2 | · | · | 3 | · | · | · | ·
CCCCC(=O)Nc1nnc(SCC(=O)NC2CCCC2)s1 | -3 | · | -9 | 1 | 2 | -1 | -1
COCCSc1nnc(NC(=O)c2ccc(OC)c([N+](=O)[O-])c2)s1 | 53* | -6 | · | -1 | 26* | 3 | 1
COc1cccc(C(=O)Nc2nnc(SCC(=O)NC3CC3)s2)c1 | · | -2 | -13 | -2 | 53* | 3 | -1

3 entries from above in a different format:
SMILES: CO[C@H]1CN(C)C(=O)c2ccc(NC(=O)C3CC3)cc2OC[C@H](C)N(C(=O)NC(C)C)C[C@H]1C
  CAL PDZ FP-2: ·; dFosB act-2: ·; UUG fidelity: -11; CDK5 p35 inh: ·; dFosB act-1: ·; DYRK1A inh: ·; CAL PDZ FP-1: ·
SMILES: CCN(CC)S(=O)(=O)c1ccc(NC(=O)Cn2c(=O)oc3ccccc32)cc1
  CAL PDZ FP-2: 0; dFosB act-2: ·; UUG fidelity: -18; CDK5 p35 inh: 0; dFosB act-1: 4; DYRK1A inh: -1; CAL PDZ FP-1: -3
SMILES: C/C=C/c1cnc2c(c1)C(=O)N([C@@H](C)CO)C[C@@H](C)[C@H](CN(C)C(=O)NC1CCCCC1)O2
  CAL PDZ FP-2: ·; dFosB act-2: ·; UUG fidelity: 3; CDK5 p35 inh: ·; dFosB act-1: ·; DYRK1A inh: ·; CAL PDZ FP-1: ·
